Read-outs that look alike come from different tables or passages of the source.
What was measured:
EGFR WT = EGFR WT (Homo sapiens, UniProt P00533); assay: Biochemical EGFR kinase assay (Lance Ultra TR-FRET), wildtype
[1] = molecular target: EGFR D19TMCS (del19/T790M/C797S) (Homo sapiens, UniProt P00533, C797S/DEL746-750/T790M); assay: Biochemical EGFR kinase assay (Lance Ultra TR-FRET), triple mutant del19/T790M/C797S
EGFR D19CS (del19/C797S) = EGFR D19CS (del19/C797S) (Homo sapiens, UniProt P00533, C797S/DEL746-750); assay: Biochemical EGFR kinase assay (Lance Ultra TR-FRET), double mutant del19/C797S
EGFR LRCS (L858R/C797S) = EGFR LRCS (L858R/C797S) (Homo sapiens, UniProt P00533, C797S/L858R); assay: Biochemical EGFR kinase assay (Lance Ultra TR-FRET), double mutant L858R/C797S
[2] = molecular target: EGFR LRTMCS (L858R/T790M/C797S) (Homo sapiens, UniProt P00533, C797S/L858R/T790M); assay: Biochemical EGFR kinase assay (Lance Ultra TR-FRET), triple mutant L858R/T790M/C797S
[3] = read-out: IC50, EGFR WT, 1 mM, ATP 1 mM, EGFR wildtype
[4] = read-out: IC50, EGFR WT, Km, ATP at Km, EGFR wildtype
[5] = read-out: IC50, EGFR D19TMCS, Km, ATP at Km, EGFR del19/T790M/C797S
[6] = read-out: IC50, EGFR-D19CS, 1 mM, ATP 1 mM, EGFR del19/C797S
[7] = read-out: IC50, EGFR-D19CS, Km, ATP at Km, EGFR del19/C797S
[8] = read-out: IC50, EGFR-LRCS, 1 mM, ATP 1 mM, EGFR L858R/C797S
[9] = read-out: IC50, EGFR-LRCS, Km, ATP at Km, EGFR L858R/C797S
[10] = read-out: IC50, EGFR LRTMCS, 1 mM, ATP 1 mM, EGFR L858R/T790M/C797S
[11] = read-out: IC50, EGFR LRTMCS, Km, ATP at Km, EGFR L858R/T790M/C797S
[12] = read-out: EGFR WT IC50, ATP 1 mM
[13] = read-out: EGFR D19TMCS IC50, ATP 1 mM
[14] = read-out: EGFR D19TMCS IC50, ATP Km
[15] = read-out: EGFR D19CS IC50, ATP 1 mM
[16] = read-out: EGFR D19CS IC50, ATP Km
[17] = read-out: EGFR LRCS IC50, ATP 1 mM
[18] = read-out: EGFR LRCS IC50, ATP Km
[19] = read-out: EGFR LRTMCS IC50, ATP 1 mM
[20] = read-out: EGFR LRTMCS IC50, ATP Km

Amino acid sequences for entries named in this document (tags omitted). A change or cut given only in a name is not applied to a line headed by its entry. Chains listed by the source or under a name are the forms on record and can include a tag or linker. Residues count along the entry.
UniProt P00533, 25-1210 limits assumed: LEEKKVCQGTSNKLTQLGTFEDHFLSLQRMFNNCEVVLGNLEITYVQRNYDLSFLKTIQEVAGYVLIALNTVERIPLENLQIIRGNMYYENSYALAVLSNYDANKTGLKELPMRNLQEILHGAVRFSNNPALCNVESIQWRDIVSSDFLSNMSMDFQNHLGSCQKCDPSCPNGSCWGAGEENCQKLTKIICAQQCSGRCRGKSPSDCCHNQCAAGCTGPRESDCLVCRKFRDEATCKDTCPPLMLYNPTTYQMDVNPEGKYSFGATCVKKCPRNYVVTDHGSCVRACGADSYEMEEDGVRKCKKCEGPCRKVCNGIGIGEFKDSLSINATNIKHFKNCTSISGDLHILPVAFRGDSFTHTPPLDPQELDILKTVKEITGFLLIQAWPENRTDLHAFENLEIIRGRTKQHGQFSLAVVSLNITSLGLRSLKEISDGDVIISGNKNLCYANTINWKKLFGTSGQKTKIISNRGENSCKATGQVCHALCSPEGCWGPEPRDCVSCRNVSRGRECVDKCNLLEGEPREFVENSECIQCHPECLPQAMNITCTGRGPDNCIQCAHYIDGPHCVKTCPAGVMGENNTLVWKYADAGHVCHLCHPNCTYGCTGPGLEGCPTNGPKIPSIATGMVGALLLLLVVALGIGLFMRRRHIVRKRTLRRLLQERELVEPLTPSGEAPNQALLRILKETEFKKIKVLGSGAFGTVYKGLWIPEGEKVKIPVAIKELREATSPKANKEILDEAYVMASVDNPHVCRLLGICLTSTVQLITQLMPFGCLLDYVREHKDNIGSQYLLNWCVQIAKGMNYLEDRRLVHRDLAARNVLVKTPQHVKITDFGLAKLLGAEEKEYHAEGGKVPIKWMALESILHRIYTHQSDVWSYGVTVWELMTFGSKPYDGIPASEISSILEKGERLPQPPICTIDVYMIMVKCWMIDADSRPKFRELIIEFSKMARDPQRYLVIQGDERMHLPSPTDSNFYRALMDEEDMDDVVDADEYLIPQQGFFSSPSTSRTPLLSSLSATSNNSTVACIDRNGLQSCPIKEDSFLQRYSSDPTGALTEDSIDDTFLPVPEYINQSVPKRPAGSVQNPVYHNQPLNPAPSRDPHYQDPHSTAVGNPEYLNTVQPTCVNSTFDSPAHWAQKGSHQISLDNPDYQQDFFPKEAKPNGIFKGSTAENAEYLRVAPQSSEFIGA
UniProt P00533, 25-1210 C797S/L858R limits assumed: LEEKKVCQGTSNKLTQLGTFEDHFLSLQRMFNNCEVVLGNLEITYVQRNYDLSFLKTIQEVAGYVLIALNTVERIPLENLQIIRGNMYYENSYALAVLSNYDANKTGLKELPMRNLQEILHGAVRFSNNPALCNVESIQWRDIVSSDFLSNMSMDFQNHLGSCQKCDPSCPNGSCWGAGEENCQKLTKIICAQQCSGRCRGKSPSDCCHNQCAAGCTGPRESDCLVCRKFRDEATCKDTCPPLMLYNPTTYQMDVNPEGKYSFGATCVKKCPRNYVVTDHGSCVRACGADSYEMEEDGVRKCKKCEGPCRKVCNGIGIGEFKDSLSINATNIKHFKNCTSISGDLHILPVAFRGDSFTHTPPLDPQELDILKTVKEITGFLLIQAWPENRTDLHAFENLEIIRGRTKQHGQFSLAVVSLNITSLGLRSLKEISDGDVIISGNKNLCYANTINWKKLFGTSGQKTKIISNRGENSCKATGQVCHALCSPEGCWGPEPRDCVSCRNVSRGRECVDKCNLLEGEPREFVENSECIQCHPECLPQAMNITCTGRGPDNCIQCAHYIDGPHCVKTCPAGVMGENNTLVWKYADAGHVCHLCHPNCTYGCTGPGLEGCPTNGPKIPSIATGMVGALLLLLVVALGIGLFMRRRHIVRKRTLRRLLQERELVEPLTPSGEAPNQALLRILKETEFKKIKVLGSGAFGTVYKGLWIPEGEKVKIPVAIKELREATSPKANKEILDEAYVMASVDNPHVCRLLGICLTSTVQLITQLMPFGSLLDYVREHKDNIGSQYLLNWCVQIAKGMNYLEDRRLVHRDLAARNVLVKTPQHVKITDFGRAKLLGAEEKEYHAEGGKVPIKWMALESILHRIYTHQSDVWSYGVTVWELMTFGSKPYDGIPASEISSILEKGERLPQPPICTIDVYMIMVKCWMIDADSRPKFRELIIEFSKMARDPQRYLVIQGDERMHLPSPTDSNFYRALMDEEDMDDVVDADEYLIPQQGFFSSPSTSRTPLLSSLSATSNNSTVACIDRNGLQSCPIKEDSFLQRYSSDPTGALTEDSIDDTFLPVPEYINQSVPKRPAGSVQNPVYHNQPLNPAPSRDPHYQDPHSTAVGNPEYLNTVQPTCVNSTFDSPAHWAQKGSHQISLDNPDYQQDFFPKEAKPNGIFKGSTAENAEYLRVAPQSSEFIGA
UniProt P00533, 25-1210 T790M/C797S/L858R limits assumed: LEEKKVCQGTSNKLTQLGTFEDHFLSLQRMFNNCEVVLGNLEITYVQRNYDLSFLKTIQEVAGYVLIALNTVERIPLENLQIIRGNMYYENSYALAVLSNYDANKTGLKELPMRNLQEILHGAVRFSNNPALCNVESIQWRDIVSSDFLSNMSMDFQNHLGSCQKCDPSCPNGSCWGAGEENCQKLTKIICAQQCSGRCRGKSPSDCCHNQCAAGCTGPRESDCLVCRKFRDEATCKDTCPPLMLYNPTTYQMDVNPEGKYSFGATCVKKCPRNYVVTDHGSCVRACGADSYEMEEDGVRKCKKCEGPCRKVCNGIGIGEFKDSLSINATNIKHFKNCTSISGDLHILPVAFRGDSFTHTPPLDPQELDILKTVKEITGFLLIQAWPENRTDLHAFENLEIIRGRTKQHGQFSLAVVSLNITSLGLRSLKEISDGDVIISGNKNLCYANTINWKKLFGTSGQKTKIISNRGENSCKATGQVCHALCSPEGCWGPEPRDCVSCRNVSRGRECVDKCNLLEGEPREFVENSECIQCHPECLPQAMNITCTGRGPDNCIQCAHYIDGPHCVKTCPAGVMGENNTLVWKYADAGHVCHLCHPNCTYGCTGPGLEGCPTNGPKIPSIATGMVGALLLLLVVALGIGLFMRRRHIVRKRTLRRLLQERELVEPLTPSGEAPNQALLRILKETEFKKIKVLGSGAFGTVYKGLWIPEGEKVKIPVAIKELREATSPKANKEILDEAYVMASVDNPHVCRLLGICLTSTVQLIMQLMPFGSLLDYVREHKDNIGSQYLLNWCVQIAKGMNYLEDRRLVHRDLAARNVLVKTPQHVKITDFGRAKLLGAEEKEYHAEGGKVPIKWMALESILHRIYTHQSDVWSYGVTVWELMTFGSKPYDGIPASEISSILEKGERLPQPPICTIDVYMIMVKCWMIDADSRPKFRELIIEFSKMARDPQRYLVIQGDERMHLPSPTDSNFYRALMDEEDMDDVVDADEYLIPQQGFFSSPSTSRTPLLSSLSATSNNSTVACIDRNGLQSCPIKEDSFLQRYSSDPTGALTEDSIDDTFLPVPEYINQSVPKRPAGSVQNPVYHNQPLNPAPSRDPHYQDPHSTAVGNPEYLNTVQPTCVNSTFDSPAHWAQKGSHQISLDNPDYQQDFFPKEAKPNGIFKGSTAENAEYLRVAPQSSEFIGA
UniProt P00533, with tags, fused parts or gaps DEL746-750/C797S limits assumed: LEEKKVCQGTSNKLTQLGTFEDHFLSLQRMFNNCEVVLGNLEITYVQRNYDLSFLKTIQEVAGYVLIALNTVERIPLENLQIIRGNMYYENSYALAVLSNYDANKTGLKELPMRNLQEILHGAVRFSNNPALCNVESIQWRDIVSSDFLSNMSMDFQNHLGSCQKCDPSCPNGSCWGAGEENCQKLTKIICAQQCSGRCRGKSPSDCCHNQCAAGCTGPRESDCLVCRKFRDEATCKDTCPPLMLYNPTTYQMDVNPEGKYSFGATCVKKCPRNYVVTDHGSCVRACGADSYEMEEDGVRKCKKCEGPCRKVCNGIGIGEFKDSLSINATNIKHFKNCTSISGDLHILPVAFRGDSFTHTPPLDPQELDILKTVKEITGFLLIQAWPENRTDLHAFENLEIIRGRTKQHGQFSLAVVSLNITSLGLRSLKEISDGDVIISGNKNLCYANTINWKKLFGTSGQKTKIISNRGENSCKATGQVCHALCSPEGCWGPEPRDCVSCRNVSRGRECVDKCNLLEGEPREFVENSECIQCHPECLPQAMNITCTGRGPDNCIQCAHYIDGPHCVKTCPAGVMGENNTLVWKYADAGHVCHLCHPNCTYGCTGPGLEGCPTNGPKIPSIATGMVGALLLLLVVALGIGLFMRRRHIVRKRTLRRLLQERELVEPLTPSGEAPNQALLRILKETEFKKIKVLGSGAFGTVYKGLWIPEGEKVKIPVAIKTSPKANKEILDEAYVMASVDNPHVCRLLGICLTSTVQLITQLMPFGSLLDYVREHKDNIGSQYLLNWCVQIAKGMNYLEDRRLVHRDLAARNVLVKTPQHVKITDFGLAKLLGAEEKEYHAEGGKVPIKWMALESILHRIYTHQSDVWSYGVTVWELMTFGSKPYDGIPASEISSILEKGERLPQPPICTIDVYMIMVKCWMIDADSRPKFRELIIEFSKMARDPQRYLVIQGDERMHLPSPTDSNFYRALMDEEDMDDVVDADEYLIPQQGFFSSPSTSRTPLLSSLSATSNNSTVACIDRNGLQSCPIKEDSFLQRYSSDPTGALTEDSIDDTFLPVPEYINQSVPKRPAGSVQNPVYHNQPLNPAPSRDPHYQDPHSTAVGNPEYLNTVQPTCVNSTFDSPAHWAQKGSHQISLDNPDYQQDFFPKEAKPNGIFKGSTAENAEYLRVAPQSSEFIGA
UniProt P00533, with tags, fused parts or gaps DEL746-750/T790M/C797S limits assumed: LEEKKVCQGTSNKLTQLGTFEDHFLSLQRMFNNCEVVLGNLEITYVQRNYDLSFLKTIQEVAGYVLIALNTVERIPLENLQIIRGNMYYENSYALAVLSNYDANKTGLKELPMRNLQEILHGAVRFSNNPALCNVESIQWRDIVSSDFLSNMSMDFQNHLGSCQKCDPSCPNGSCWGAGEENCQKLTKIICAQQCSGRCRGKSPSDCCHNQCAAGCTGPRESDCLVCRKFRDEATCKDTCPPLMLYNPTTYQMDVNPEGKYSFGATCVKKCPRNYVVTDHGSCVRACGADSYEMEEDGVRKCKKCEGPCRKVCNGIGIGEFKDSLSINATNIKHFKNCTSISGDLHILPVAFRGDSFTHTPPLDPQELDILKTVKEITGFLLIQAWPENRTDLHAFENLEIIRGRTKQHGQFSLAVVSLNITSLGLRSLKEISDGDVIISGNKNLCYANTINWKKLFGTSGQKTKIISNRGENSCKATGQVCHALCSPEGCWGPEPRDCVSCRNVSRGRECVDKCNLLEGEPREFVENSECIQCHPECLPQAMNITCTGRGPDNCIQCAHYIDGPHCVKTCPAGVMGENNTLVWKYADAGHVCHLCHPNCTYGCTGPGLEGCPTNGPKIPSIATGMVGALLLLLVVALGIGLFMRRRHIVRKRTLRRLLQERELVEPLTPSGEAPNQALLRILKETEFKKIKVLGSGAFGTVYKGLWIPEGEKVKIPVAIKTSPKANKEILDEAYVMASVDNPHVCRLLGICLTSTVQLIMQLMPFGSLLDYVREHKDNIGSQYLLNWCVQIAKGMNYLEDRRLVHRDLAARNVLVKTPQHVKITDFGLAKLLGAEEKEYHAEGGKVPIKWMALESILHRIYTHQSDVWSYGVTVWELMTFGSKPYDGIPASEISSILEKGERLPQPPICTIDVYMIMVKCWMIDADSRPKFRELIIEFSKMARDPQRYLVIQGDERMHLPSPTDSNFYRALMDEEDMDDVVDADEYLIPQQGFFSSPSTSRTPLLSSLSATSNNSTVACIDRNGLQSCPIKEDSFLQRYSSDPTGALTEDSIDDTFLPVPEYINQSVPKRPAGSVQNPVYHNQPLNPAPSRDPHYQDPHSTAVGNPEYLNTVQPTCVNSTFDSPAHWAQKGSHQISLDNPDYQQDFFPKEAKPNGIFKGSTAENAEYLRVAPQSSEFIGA

IC50 (EGFR WT; [3]) | IC50 (EGFR WT; [4]) | IC50 [1, 5] | IC50 (EGFR D19CS (del19/C797S); [6]) | IC50 (EGFR D19CS (del19/C797S); [7]) | IC50 (EGFR LRCS (L858R/C797S); [8]) | IC50 (EGFR LRCS (L858R/C797S); [9]) | IC50 [2, 10] | IC50 [2, 11] | IC50 (EGFR WT; [12]) | IC50 (EGFR WT; read-out: EGFR WT IC50, ATP Km) | IC50 [1, 13] | IC50 [1, 14] | IC50 (EGFR D19CS (del19/C797S); [15]) | IC50 (EGFR D19CS (del19/C797S); [16]) | IC50 (EGFR LRCS (L858R/C797S); [17]) | IC50 (EGFR LRCS (L858R/C797S); [18]) | IC50 [2, 19] | IC50 [2, 20] | Structure (SMILES)
> 1000 nM | 10 to 100 nM | 10 to 100 nM | 10 to 100 nM | < 10 nM | 10 to 100 nM | < 10 nM | < 10 nM | < 10 nM |  |  |  |  |  |  |  |  |  |  | Cc1nn(C)c2c1-c1nccc(n1)Nc1cc(c(-c3ncc(CN4CC5CS(=O)(=O)CC5C4)cc3F)cn1)NCC[C@H](C)O2 (stereo partly shown)
> 1000 nM | 10 to 100 nM | < 10 nM | 10 to 100 nM | < 10 nM | 10 to 100 nM | < 10 nM | < 10 nM | < 10 nM |  |  |  |  |  |  |  |  |  |  | Cc1nn(C)c2c1-c1nccc(n1)Nc1cc(c(-c3ncc(CN4CCC(C)(O)CC4)cc3F)cn1)N[C@@H](C)CCO2
 |  |  |  |  |  |  |  |  | > 1000 nM | 10 to 100 nM | < 10 nM | < 10 nM | > 1000 nM | 10 to 100 nM | > 1000 nM | 10 to 100 nM | 10 to 100 nM | < 10 nM | C[C@H]1CCOc2c(cnn2C)-c2nccc(n2)Nc2cc(c(-c3nccc(OC(F)F)c3F)cn2)N1
 |  |  |  |  |  |  |  |  | > 1000 nM | 10 to 100 nM | < 10 nM | < 10 nM | 10 to 100 nM | < 10 nM | 100 to 1000 nM | < 10 nM | < 10 nM | < 10 nM | Cc1nn(C)c2c1-c1nccc(n1)Nc1cc(c(-c3ncc(CN4CC(O)C(C)(C)C4)cc3F)cn1)N[C@@H](C)CCO2 (stereo partly shown)
 |  |  |  |  |  |  |  |  | > 1000 nM | 100 to 1000 nM | < 10 nM | < 10 nM | > 1000 nM | 10 to 100 nM | > 1000 nM | < 10 nM | 10 to 100 nM | < 10 nM | Cn1ncc2c1OCCCCNc1cc(ncc1-c1ccn(C(F)F)n1)Nc1ccnc-2n1
> 1000 nM | 10 to 100 nM | < 10 nM | 10 to 100 nM | < 10 nM | 10 to 100 nM | < 10 nM | 10 to 100 nM | < 10 nM |  |  |  |  |  |  |  |  |  |  | Cc1nn(C)c2c1-c1nccc(n1)Nc1cc(c(-c3cc(C(C)(C)O)ccn3)cn1)NCC[C@H](C)O2
 |  |  |  |  |  |  |  |  | > 1000 nM | > 1000 nM | 100 to 1000 nM | 10 to 100 nM | > 1000 nM | > 1000 nM | > 1000 nM | > 1000 nM | > 1000 nM | 10 to 100 nM | C[C@@H]1CCOc2c(cnn2C)-c2nccc(n2)Nc2cc(c(-c3ncccc3F)cn2)N1
> 1000 nM | 10 to 100 nM | < 10 nM | < 10 nM | < 10 nM | 10 to 100 nM | < 10 nM | < 10 nM | < 10 nM |  |  |  |  |  |  |  |  |  |  | Cc1nn(C)c2c1-c1nccc(n1)Nc1cc(c(-c3ncc(CN4CC(C(C)(C)O)C4)cc3F)cn1)N[C@@H](C)CCO2
 |  |  |  |  |  |  |  |  | > 1000 nM | 100 to 1000 nM | 10 to 100 nM | < 10 nM | > 1000 nM | 100 to 1000 nM | > 1000 nM | > 1000 nM | 10 to 100 nM | < 10 nM | Cn1ncc2c1OCC(F)(F)CNc1cc(ncc1-c1ccn(C(F)F)n1)Nc1ccnc-2n1
 |  |  |  |  |  |  |  |  | > 1000 nM | 10 to 100 nM | < 10 nM | < 10 nM | 10 to 100 nM | 10 to 100 nM | 100 to 1000 nM | 10 to 100 nM | 10 to 100 nM | < 10 nM | Cc1nn(C)c2c1-c1nccc(n1)Nc1cc(c(-c3cc(OC(F)F)ccn3)cn1)NCC(C)(C)CO2
 |  |  |  |  |  |  |  |  | > 1000 nM | 100 to 1000 nM | 10 to 100 nM | < 10 nM | > 1000 nM | 100 to 1000 nM | > 1000 nM | 100 to 1000 nM | 100 to 1000 nM | < 10 nM | Cn1ncc2c1OC[C@@H]1CC[C@@H](C1)Nc1cc(ncc1-c1ccn(C(F)F)n1)Nc1ccnc-2n1
> 1000 nM | 10 to 100 nM | < 10 nM | 10 to 100 nM | 10 to 100 nM | 100 to 1000 nM | 10 to 100 nM | < 10 nM | < 10 nM |  |  |  |  |  |  |  |  |  |  | Cc1nn(C)c2c1-c1nccc(n1)Nc1cc(c(-c3ncc(CN4CCOCC4)cc3F)cn1)N[C@@H](C)CCO2
